Laboratory results from patent US20230149366A1, “SOLID DOSAGE FORMS OF TAFAMIDIS” (Nuray Chemicals Private Limited, priority 2021, published 2023).

Details: pH 4.5

Question: Which Solubility does the source give for “2-(3,5-dichlorophenyl)-1,3-benzoxazole-6-carboxylic acid mono (1-deoxy-1-methylamino-D-glucitol) [tafamidis meglumine]” here?
Answer: The Solubility was “poor solubility/insoluble”.
